Experimental data from patent publication US20240043392A1, “NOVEL BIPHENYL DERIVATIVE AND PREPARATION METHOD AND PHARMACEUTICAL USE THEREOF” (XI'AN XINTON PHARMACEUTCAL RESEARCH CO., LTD., priority 2021, published 2024).

Tested on: C57BL/6 mice
Experiment: Acute toxicity test, intraperitoneal injection
Conditions: 250 mg/kg and 125 mg/kg

Row | Substance | death of mice
1 | (5-chloro-2-((5-cyanopyridin-3-)methoxy)-4-((3′-(3-(4-((((R)-1-ethoxy-3-hydroxy-1-oxo propan-2-)amino)methyl)-1H-1,2,3-triazol-1-)propoxy)-2,2′-dimethyl-[1,1′-biphenyl]-3-)meth oxy) benzyl)-D-serine ethyl ester | did not die
2 | (4-((3′-(3-(4-(((1-carboxy-2-hydroxyethyl)amino) methyl)-1H-1,2,3-triazole-1-)propane oxy)-2,2′-dimethyl-[1,1′-biphenyl]-3-)methoxy)-5-chloro-2-((5-cyanopyridin-3-)methoxy)ben zyl)serine | did not die
